What is called Ki is the equilibrium dissociation constant of an inhibitor or competing ligand from its target. Lower therefore signals tighter binding.

The chains behind the UniProt entries cited, without tags or fusion partners.
UniProt P40763, whole entry: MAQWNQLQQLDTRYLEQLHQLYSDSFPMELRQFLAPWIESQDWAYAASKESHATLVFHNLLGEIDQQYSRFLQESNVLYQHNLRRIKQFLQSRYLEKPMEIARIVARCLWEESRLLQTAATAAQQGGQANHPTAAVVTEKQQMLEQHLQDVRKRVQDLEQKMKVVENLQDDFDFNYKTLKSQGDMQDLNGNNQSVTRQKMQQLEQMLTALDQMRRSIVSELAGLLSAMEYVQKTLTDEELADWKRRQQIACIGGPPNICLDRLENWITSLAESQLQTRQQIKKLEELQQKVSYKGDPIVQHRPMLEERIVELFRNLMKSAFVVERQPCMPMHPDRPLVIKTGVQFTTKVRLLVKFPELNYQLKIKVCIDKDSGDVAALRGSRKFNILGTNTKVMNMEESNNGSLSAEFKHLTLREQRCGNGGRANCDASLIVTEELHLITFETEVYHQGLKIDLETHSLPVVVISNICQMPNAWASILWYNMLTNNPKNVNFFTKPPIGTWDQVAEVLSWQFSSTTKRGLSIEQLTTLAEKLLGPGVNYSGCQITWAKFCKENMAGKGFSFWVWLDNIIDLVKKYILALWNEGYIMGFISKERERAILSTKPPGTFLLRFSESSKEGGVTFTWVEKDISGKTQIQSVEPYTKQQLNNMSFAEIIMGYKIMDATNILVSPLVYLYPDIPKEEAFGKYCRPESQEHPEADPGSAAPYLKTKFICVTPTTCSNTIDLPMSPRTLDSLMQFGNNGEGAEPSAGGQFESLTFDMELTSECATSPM

We go through 1 compound from ChEMBL document CHEMBL1828629, “Identification of a non-phosphorylated, cell permeable, small molecule ligand for the Stat3 SH2 domain” (Bioorg Med Chem Lett, 2011).

This assay has as its target Signal transducer and activator of transcription 3 (Homo sapiens, UniProt P40763). Nature of the assay: Inhibition of STAT3 using fluorescent probe 5-carboxyfluorescein-GpYLPQTV-NH2 after 15 mins by fluorescence polarisation assay.

The compound `CN(C)c1cccc2c(S(=O)(=O)N(C)CC(=O)N(Cc3ccc(C4CCCCC4)cc3)c3ccc(C(=O)O)c(O)c3)cccc12` came in with a Ki of 13.3 µM.
